Results taken from patent US4540700A, “Treatment of diabetic complications with certain spiro-imidazolidine-diones” (Alcon Laboratories, Inc., priority 1984, dated 1985).
pIC50: −log10 of the molar value.

Molecular target: Rat Aldose Reductase (Rattus norvegicus, UniProt P07943)
Assay: Rat Aldose Reductase Inhibition
Format: biochemical
Experimental: Compounds A to U were tested for their ability to inhibit aldose reductase enzyme activity via the procedure of P. F. Kador, L. O. Merola and J. H. Kinoshita as described in Documenta Ophthamologica, 18 (1979) 117.
*According to the procedures of P. F. Kador and N. E. Sharpless,
Biophysical Chemistry, 8 (1978) 81-85; P. F. Kador, L. O. Merola and J. H
Kinoshita Documenta Ophthamologica, 18 (1979) 117.

SMILES	pIC50
O=C1NC(=O)C2(CCOc3ccc(F)cc32)N1 (centres unmarked) [Sarges Resolved, dSpiro-(6-fluorochroman-4,4imidazolidine)-2',5dione, reference compound]	6.82
O=C1NC(=O)C2(CCOc3ccc(F)cc32)N1 (racemic) [Sarges Racemic, dl-spiro-(6-fluorochroman-4,4'-imidazolidine)-2',5'-dione, reference compound]	6.37
